This test deals with human gonadotropin-releasing hormone receptor (Homo sapiens (Human), UniProt P30968). Put plainly: FLIPR calcium flow assay of inhibitory activity on gonadotropin-releasing hormone receptor in GnRH/HEK293 cells. To be noted: read-out: IC50 on inhibiting the activity of human gonadotropin-releasing hormone receptor, Ca2+ flow, agonist Leuprolide acetate. The protocol:
Objective of assay: to detect the inhibitory activity of assay compounds on gonadotropin-releasing hormone receptor at the cellular level using FLIPR detection technology.
GnRH/HEK293 (human embryonic kidney cell 293) cultured cells in the logarithmic growth phase were washed with DPBS (Dulbecco's phosphate buffered saline) buffer, and an appropriate amount of 0.05% EDTA (ethylenediaminetetraacetic acid)-trypsin was added. The cells were placed in a carbon dioxide incubator at 37° C. for digestion for 1-2 minutes, and then removed from the incubator. A medium was added to the cells to terminate the digestion. Cells were dispersed by repeated pipetting and harvested by centrifugation. […]
On the next day, 20 μL, of 2×Fluo-4Direct™ buffer was added to each well, and the plate was incubated in a 5% CO2, 37° C. incubator for 50 minutes. […] The fluorescence signal was read. Then 10 μL of the reference compound as an agonist was added, and the fluorescent signal was read. EC50 was calculated, and the agonist with a concentration of 6×EC50 was prepared.
2 mM assay compounds and an appropriate concentration of reference compound were serially diluted 4-fold to 10 concentrations in ECHO, and 900 nL of that was transferred to a compound plate. […] The fluorescent signal was read. Then 10 μL of agonist with a concentration of 6×EC50 was added to the cell plate and the fluorescent signal was read. […]

Sequences of proteins named here, by UniProt entry; tags and fusion partners are left off.
UniProt P30968, whole entry: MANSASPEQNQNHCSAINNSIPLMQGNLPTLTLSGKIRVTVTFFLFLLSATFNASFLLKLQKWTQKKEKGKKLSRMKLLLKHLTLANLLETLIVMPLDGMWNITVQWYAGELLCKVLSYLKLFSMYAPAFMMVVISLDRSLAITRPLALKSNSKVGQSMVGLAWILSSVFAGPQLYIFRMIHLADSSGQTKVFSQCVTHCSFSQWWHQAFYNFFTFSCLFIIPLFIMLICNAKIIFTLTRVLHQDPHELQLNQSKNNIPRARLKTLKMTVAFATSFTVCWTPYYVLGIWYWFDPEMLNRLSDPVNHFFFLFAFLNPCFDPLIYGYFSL

The record followed here is patent publication US20240158413A1, “FUSED POLYCYCLIC SUBSTITUTED 5-CARBOXYLIC ACID THIENOPYRIMIDINE DIONE COMPOUND AND USE THEREOF” (SOTER BIOPHARMA PTE. LTD., priority 2021, published 2024).

For orientation: IC50 means the point on the concentration scale where inhibition reaches its midpoint.

Each structure is given as a SMILES string.

With `O=C(O)c1scc2[nH]c(=O)n(-c3cc4c(cc3F)OCCCOc3c(F)cc(F)cc3CO4)c(=O)c12`, the half-inhibitory concentration (IC50) came out at 18 nM.
As for `O=C(O)c1scc2[nH]c(=O)n(-c3cc4c(cc3F)OCCCCOc3ccc(F)c(F)c3CO4)c(=O)c12`, the IC50 was 10.1 nM.
